In general, efflux ratio refers to a quotient of directional permeabilities that is used to spot active efflux.

This data set in a line: in vitro. As to conditions: pig, LLC-PK1.

Consider `CC(C)(C)[C@H](NC(=O)C(F)(F)F)C(=O)N1C[C@H]2[C@@H]([C@H]1C(=O)N[C@H](C#N)C[C@@H]1CCNC1=O)C2(C)C` [nirmatrelvir, reference compound], for which the efflux ratio is 2.3.

Values taken from publication PMC12557365 (Journal of Medicinal Chemistry, 2025).
